# Experimental data reported in PMC6962383.
# How the values were obtained:
# [1] = biological target: bovine trypsin (Bos taurus) (UniProt P00760); assay: yeast surface display with four-gate FACS sorting and deep sequencing, enrichment normalized to ddG with purified-protein data
# [2] = biological target: bovine trypsin (Bos taurus) (UniProt P00760); assay: ddG of purified BPTI mutants binding bovine trypsin, mostly from literature; conditions: cited from earlier work
# Bovine Trypsin (bovine) [3] = conditions: natural protein
# Bovine Trypsin (bovine) [4] = conditions: natural protein; remark: listed apart in the source
ddG [1],Ki (Bovine Trypsin (bovine) [3]),Ki (Bovine Trypsin (bovine) [4]),Substance,ddG [2]
3.6 kcal/mol,,,A16G (from UniProt P00974),1.76 kcal/mol
4.5 kcal/mol,,,A16S (from UniProt P00974),3.03 kcal/mol
4.63 kcal/mol,,,A16V (from UniProt P00974),7.55 kcal/mol
8.95 kcal/mol,,,A16W (from UniProt P00974),9.64 kcal/mol
,,0.004 nM,"BPTI mutant T11N, purified",
11.1 kcal/mol,,,K15A (from UniProt P00974),10.5 kcal/mol and 10.1 kcal/mol
10.5 kcal/mol,,,K15I (from UniProt P00974),11.1 kcal/mol
10.3 kcal/mol,,,K15V (from UniProt P00974),11.6 kcal/mol
8.96 kcal/mol,,,K15Y (from UniProt P00974),6.78 kcal/mol
3.26 kcal/mol,,,V34L (from UniProt P00974),
2.94 kcal/mol,,,V34M (from UniProt P00974),
1.97 kcal/mol,,,V34N (from UniProt P00974),
3.08 kcal/mol,,,V34Q (from UniProt P00974),
2.17 kcal/mol,,,V34Y (from UniProt P00974),
3.56 kcal/mol,,,Y35A (from UniProt P00974),
8.29 kcal/mol,,,Y35C (from UniProt P00974),
4.92 kcal/mol,,,Y35D (from UniProt P00974),
7.81 kcal/mol,,,Y35K (from UniProt P00974),
3.43 kcal/mol,,,Y35N (from UniProt P00974),
7.23 kcal/mol,,,Y35P (from UniProt P00974),
6.59 kcal/mol,,,Y35R (from UniProt P00974),
2.49 kcal/mol,,,Y35S (from UniProt P00974),
4.2 kcal/mol,,,Y35T (from UniProt P00974),
1.79 kcal/mol,,,Y35W (from UniProt P00974),

# Further lines, the substance ahead of its results:
Substance,ddG [1],Ki (Bovine Trypsin (bovine) [3]),Ki (Bovine Trypsin (bovine) [4]),ddG [2]
A16L (from UniProt P00974),8.02 kcal/mol,,,7.56 kcal/mol
A16R (from UniProt P00974),4.65 kcal/mol,,,4.67 kcal/mol
"BPTI mutant R39I, purified",,0.038 nM,,
G12A (from UniProt P00974),3.36 kcal/mol,,,4.35 kcal/mol
G36A (from UniProt P00974),3.14 kcal/mol,,,4.89 kcal/mol
I18A (from UniProt P00974),5.04 kcal/mol,,,4.97 kcal/mol
K15D (from UniProt P00974),9.44 kcal/mol,,,11.4 kcal/mol
K15E (from UniProt P00974),8.94 kcal/mol,,,9.32 kcal/mol
K15F (from UniProt P00974),8.29 kcal/mol,,,6.95 kcal/mol
K15G (from UniProt P00974),11 kcal/mol,,,12.2 kcal/mol
K15H (from UniProt P00974),8.36 kcal/mol,,,8.69 kcal/mol
K15L (from UniProt P00974),9.41 kcal/mol,,,8.77 kcal/mol
K15M (from UniProt P00974),8.61 kcal/mol,,,7.61 kcal/mol
K15N (from UniProt P00974),8.61 kcal/mol,,,7.95 kcal/mol
K15Q (from UniProt P00974),8.15 kcal/mol,,,9.27 kcal/mol
K15R (from UniProt P00974),-1.44 kcal/mol,,,-0.77 kcal/mol
K15S (from UniProt P00974),8.76 kcal/mol,,,7.64 kcal/mol
K15T (from UniProt P00974),9.61 kcal/mol,,,10.5 kcal/mol
K15W (from UniProt P00974),8.74 kcal/mol,,,8.57 kcal/mol
R39I (from UniProt P00974),3.87 kcal/mol,,,3.64 kcal/mol
T11N (from UniProt P00974),2.58 kcal/mol,,,2.32 kcal/mol
T11W (from UniProt P00974),1.67 kcal/mol,,,
T11Y (from UniProt P00974),2.91 kcal/mol,,,
V34A (from UniProt P00974),2.24 kcal/mol,,,

Substance,ddG [1],Ki (Bovine Trypsin (bovine) [3]),Ki (Bovine Trypsin (bovine) [4]),ddG [2]
V34C (from UniProt P00974),4.2 kcal/mol,,,
V34D (from UniProt P00974),2.72 kcal/mol,,,
V34E (from UniProt P00974),3.16 kcal/mol,,,
V34F (from UniProt P00974),2.2 kcal/mol,,,
V34G (from UniProt P00974),1.59 kcal/mol,,,
V34H (from UniProt P00974),1.62 kcal/mol,,,
V34I (from UniProt P00974),2.21 kcal/mol,,,
V34K (from UniProt P00974),3.44 kcal/mol,,,
V34P (from UniProt P00974),2.1 kcal/mol,,,
V34R (from UniProt P00974),3.16 kcal/mol,,,
V34S (from UniProt P00974),2.41 kcal/mol,,,
V34T (from UniProt P00974),2.72 kcal/mol,,,
V34W (from UniProt P00974),2.39 kcal/mol,,,
WT (from UniProt P00974),,,,0 kcal/mol
Y35E (from UniProt P00974),5.62 kcal/mol,,,
Y35F (from UniProt P00974),0.809 kcal/mol,,,
Y35G (from UniProt P00974),3.38 kcal/mol,,,3.29 kcal/mol
Y35H (from UniProt P00974),2.39 kcal/mol,,,
Y35I (from UniProt P00974),6.05 kcal/mol,,,
Y35L (from UniProt P00974),5.1 kcal/mol,,,
Y35M (from UniProt P00974),2.52 kcal/mol,,,
Y35Q (from UniProt P00974),2.57 kcal/mol,,,
Y35V (from UniProt P00974),5.35 kcal/mol,,,

# “And” between values parts separate entries of the source, which are not always exact repeats. Identical values can stand only once. Like-named read-outs stand apart in the source and are kept apart here.
